Experimental findings from ChEMBL document CHEMBL1137067, “Alpha-1-C-alkyl-1-deoxynojirimycin derivatives as potent and selective inhibitors of intestinal isomaltase: remarkable effect of the alkyl chain length on glycosidase inhibitory profile” (Bioorg Med Chem Lett, 2004) are described below.

This test has as its system trehalase (Sus scrofa). The experiment in a line: Inhibitory activity against trehalase from porcine kidney at 1000 uM.

Structures are written as SMILES.

As usually defined, the inhibition is how much of the control response was suppressed. Low readings indicate little suppression, high ones strong suppression.

In turn, `CCCC[C@@H]1N[C@@H](CO)[C@@H](O)[C@H](O)[C@@H]1O` returned an inhibition below 50%.
